In this experiment the target is T1, CD39 (ectonucleoside triphosphate diphosphohydrolase 1, ENTPD1) (human, UniProt P49961 1-510).
T1 construct: whole, on cells; The 'target' of the target occupancy measurement on peripheral blood monocytes of patients dosed with clone 22; also called E-NTPDase1; NTPDase-1
T1 sequence (looked up): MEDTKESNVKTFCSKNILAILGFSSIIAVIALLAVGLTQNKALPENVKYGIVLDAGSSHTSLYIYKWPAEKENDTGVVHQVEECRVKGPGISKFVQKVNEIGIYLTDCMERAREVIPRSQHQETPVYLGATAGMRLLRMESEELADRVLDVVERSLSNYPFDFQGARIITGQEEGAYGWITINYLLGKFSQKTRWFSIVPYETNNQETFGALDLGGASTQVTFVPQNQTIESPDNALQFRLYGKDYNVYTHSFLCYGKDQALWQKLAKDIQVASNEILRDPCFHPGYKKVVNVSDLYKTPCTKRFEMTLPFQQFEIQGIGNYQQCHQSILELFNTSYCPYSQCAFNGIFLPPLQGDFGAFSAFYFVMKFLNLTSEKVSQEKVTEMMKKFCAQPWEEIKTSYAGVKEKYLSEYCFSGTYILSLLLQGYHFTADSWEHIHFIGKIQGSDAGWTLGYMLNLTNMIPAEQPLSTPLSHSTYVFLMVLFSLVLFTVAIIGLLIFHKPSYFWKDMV
Put plainly: percent target occupancy on peripheral blood monocytes of dosed patients (ex vivo pharmacodynamic assay).

B1: Clone 22 (antibody, human IgG4 S228P, kappa, V domains shown)
VH: QVQLVQSGAEVKKPGSSVKVSCKASGGTFSSEGISWVRQAPGQGLEWMGSILPIFGTANYAQKFQGRVTITADESTSTAYMELSSLRSEDTAVYYCAREAGYYRYRYFDLWGRGTLVTVSS
VL: EIVMTQSPATLSVSPGERATLSCRASQSVSSNLAWYQQKPGQAPRLLIYGASTRATGIPARFSGSGSGTEFTLTISSLQSEDFAVYYCQQHALWPLTFGGGTKVEIKR
As to B1, the binding result is given as “binds”.

(Values after US20220389115A1 (SURFACE ONCOLOGY, published 2022).)
